# Antibody variant affinities, Ab-95 light chain, assay 2

Target: peptide PDVDLGDISGINAS, taken from heptad repeat 2 (HR2) of SARS-CoV-2 spike.

Ab-95 is the parent antibody, in scFv form: VH, then the linker GGGGSGGGGSGGGGS, then VL. The heavy chain is unchanged in all variants.
VH: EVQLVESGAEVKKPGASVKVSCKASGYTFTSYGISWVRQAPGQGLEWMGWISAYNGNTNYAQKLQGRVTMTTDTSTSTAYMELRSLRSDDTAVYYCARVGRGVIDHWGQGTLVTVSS
VL: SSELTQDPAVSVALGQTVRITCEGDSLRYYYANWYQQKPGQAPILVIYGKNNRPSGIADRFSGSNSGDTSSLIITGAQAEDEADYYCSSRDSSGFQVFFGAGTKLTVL

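Library AAYL52 holds single substitutions and randomly drawn double and triple substitutions in the CDRs. Affinity was read by AlphaSeq, a pooled yeast mating assay with surface-displayed partners. After mating in shaken culture at 30 °C for 16 h, diploids were selected and their barcode pairs sequenced. Scores were corrected for input abundance and mapped to Kd with protein pairs of known affinity run in the same pool. The assay was run in three technical replicates.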

Changes read parent residue, position, new residue, counted from the first residue of the VL shown.
Scale: log10 of Kd in nM, estimated from mating counts; low values are strong binders.
Averages over replicates are reported, and they cover detected replicates only.
"ND" marks a missing value. The strain was present, yet no cells mated with the target were sequenced in that replicate, which points to weak or no binding.
Parent in this assay: reference entry 2.31, copy in this library 2.25.

changes	replicates, log10 nM	mean, log10 nM	control signals
A32R+S93C+V97A	4.04 4.90 ND	4.47	3 of 9 (3.50)
Y30P+S92M+V97T	1.88 1.86 1.91	1.88	5 of 9 (4.47)
Y29M+G49M+S93I	3.22 2.47 ND	2.84	2 of 9 (4.03)
N51P+R53M+R90K	3.21 ND 3.76	3.49	0 of 9
R28G+Y29T+Q96M	2.78 2.45 2.75	2.66	5 of 9 (3.93)
A32N+N33R+R53F	3.97 3.35 3.88	3.73	5 of 9 (3.64)
P54V+Q96I+F98S	ND ND 2.83	2.83	1 of 9 (2.76)
E23H+N52K+G94Q	4.02 3.49 4.75	4.08	4 of 9 (4.33)
Y31L+S89C+Q96T	3.02 3.19 3.03	3.08	3 of 9 (4.51)
R90G+F98D	3.63 3.06 2.67	3.12	2 of 9 (3.61)
Y29V+P54K+S93K	4.41 ND ND	4.41	1 of 9 (5.08)
Y30K+R90L+G94I	2.08 1.60 1.40	1.69	1 of 9 (2.06)
Y30S+G49R	3.62 2.79 3.11	3.17	0 of 9
N52L+S88W+F95S	4.13 3.12 ND	3.62	1 of 9 (4.23)
Y30T+S55E+D91W	2.30 2.72 2.11	2.38	4 of 9 (4.69)
A32C+N33L+F98C	5.90 4.55 ND	5.23	3 of 9 (4.26)
G24F+S26A+S92M	3.86 3.76 3.55	3.72	3 of 9 (4.16)
R28W+N51H	3.87 3.95 ND	3.91	4 of 9 (4.08)
N51A+P54Q+G94H	ND ND ND	ND	3 of 9 (4.03)
A32Y+N33T+S93K	4.31 ND 4.03	4.17	4 of 9 (3.97)
D25P+K50E	2.02 1.83 1.57	1.81	2 of 9 (5.24)
A32P+R90D+F95P	2.69 2.70 2.97	2.79	2 of 9 (3.98)
Y30K+N51R+R90I	ND ND ND	ND	0 of 9
N33P+K50H+Q96G	4.59 ND 3.07	3.83	4 of 9 (3.91)
N33R+D91P+F95S	ND 3.68 3.25	3.46	1 of 9 (3.63)
S26V+A32N+P54D	ND 5.32 ND	5.32	1 of 9 (4.13)
N52T+S55P+V97W	3.69 ND ND	3.69	0 of 9
Y31I+A32S+D91G	2.89 3.05 1.78	2.57	6 of 9 (3.83)
G49S+S88R+V97K	2.50 3.01 3.00	2.84	0 of 9
L27Y+V97S+F98W	ND ND ND	ND	1 of 9 (3.13)
Y31H+N33E+P54D	3.79 ND ND	3.79	1 of 9 (4.24)
S55W+V97R+F98M	ND 3.13 2.89	3.01	0 of 9
S26P+A32M	ND 3.58 4.22	3.90	3 of 9 (3.98)
N33R	4.67 4.89 3.60	4.38	4 of 9 (3.88)
S88F+Q96M	2.07 ND 3.44	2.75	0 of 9
K50N+F98Y	2.42 2.02 1.85	2.10	5 of 9 (3.83)
R28F+Y29I+D91I	3.91 ND ND	3.91	0 of 9
S26Q+R90W+S93C	ND ND ND	ND	0 of 9

For reference, 4 entries of the list once more:

changes	replicates, log10 nM	mean, log10 nM	control signals
R28G+Y29T+Q96M	2.78 2.45 2.75	2.66	5 of 9 (3.93)
N51P+R53M+R90K	3.21 ND 3.76	3.49	0 of 9
A32C+N33L+F98C	5.90 4.55 ND	5.23	3 of 9 (4.26)
R28F+Y29I+D91I	3.91 ND ND	3.91	0 of 9

Three control strains display no target. For library AAYL52, 28% of the pairings with them gave a signal, with a median of 3.91 and one signal in twenty below 2.90, so weak values seen in few replicates may be background. For each scFv, signals with the empty controls are counted beside the result, with their mean in brackets.

Data: MIT Lincoln Laboratory AlphaSeq set, Engelhart et al. 2022, doi:10.1038/s41597-022-01779-4, as distributed in FLAb.